The values that follow come from paper PMC12057336 (Antimicrobial Agents and Chemotherapy, 2025).

The chains behind the UniProt entries cited, without tags or fusion partners. Where a name states a change or a piece, a line headed by the entry shows the natural chain unless it says otherwise.
UniProt Q92887: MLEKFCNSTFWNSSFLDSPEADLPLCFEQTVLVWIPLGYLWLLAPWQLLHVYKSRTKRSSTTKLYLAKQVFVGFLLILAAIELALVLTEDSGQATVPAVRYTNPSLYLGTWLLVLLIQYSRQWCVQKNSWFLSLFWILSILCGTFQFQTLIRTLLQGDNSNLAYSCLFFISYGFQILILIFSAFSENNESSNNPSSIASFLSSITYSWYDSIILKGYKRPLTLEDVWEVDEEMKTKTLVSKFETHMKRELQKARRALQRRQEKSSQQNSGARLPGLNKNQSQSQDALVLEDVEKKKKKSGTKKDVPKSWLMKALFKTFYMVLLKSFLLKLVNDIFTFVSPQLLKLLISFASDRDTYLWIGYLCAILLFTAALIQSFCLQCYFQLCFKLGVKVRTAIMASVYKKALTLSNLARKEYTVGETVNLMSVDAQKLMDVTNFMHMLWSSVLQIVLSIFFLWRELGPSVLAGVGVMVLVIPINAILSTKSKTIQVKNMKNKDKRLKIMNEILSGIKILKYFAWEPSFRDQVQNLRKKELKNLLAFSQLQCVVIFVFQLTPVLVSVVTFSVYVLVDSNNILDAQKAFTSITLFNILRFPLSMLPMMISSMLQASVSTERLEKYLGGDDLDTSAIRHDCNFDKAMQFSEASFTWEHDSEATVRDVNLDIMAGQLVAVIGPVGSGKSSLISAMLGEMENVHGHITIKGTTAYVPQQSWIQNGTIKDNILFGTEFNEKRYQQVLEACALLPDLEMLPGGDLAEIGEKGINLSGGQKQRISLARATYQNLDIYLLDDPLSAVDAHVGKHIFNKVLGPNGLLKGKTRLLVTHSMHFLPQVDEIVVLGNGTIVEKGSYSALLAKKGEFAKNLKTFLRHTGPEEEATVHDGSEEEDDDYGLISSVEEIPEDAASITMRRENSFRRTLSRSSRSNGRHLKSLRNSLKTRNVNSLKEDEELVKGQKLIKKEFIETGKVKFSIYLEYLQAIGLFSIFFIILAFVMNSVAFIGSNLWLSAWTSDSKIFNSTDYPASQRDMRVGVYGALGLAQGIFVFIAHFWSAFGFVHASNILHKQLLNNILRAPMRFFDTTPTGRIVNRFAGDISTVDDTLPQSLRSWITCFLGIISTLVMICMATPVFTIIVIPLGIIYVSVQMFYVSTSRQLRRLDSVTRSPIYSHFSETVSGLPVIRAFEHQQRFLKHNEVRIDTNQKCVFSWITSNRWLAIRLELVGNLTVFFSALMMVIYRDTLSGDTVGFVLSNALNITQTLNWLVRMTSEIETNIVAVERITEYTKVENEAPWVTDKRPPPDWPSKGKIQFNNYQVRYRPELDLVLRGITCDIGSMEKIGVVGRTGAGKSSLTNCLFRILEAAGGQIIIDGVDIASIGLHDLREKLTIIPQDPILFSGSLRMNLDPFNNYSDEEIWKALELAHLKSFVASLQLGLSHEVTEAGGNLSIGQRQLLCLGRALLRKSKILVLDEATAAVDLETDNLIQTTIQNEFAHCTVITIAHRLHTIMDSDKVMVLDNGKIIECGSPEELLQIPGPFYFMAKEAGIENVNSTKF
UniProt P08183, whole entry: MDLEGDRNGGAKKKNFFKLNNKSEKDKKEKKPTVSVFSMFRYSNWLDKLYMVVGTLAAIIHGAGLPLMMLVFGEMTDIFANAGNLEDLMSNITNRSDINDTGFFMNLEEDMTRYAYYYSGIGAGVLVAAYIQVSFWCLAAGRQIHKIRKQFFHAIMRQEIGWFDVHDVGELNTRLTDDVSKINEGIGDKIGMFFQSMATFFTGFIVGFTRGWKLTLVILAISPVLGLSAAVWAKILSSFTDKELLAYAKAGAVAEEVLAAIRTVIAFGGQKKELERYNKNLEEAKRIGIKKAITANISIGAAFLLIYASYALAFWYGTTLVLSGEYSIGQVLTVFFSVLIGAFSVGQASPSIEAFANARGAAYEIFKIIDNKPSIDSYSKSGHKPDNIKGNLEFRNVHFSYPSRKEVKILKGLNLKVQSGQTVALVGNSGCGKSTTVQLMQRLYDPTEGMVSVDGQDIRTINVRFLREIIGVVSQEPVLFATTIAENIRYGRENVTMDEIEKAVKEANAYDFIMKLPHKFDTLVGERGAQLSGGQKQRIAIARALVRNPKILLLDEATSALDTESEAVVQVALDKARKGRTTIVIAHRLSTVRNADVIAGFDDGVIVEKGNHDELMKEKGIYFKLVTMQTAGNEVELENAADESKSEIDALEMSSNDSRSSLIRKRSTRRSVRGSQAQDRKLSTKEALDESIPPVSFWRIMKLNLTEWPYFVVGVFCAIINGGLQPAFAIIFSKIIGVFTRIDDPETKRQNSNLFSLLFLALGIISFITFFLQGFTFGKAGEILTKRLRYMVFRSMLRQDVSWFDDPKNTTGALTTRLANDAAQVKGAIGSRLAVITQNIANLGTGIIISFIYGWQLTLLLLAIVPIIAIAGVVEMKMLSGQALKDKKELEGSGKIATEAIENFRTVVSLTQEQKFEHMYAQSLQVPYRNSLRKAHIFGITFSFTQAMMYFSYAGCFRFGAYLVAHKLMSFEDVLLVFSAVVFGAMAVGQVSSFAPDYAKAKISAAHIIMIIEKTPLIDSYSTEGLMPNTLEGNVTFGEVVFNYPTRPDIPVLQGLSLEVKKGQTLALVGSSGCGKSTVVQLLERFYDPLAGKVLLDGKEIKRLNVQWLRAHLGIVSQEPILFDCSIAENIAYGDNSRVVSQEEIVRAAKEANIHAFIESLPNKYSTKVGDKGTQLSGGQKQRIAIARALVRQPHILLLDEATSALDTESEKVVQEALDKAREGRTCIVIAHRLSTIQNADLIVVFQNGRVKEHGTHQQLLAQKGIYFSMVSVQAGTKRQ
UniProt Q4U2R8: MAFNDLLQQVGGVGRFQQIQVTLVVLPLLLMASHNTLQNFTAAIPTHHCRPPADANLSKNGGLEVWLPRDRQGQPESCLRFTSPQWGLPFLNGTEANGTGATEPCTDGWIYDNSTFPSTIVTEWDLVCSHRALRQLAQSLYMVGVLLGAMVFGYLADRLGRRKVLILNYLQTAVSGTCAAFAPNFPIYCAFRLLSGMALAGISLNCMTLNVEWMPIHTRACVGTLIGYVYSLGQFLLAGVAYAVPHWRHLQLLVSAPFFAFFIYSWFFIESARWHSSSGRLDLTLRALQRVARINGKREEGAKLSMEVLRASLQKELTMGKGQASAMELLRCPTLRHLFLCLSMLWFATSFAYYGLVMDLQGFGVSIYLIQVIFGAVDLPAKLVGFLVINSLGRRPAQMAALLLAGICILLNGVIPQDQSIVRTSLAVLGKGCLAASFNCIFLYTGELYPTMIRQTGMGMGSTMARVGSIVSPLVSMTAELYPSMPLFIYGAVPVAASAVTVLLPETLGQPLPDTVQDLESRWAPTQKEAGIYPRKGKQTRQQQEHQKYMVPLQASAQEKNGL

The test system of data set [1] is OCT1. Particulars: cited from earlier work.
Data set [2] addresses human MRP2 (Homo sapiens, UniProt Q92887). The settings on record: 5 µM; 5 min; 37°C; ATP vs AMP. How it is done: (§1) OATP1B1-, OATP1B3-, OATP2B1-, NTCP-, OAT1-, and OAT3-transfected HEK293 cells were cultured in DMEM supplemented with 10% FBS, 100 U/mL penicillin-streptomycin at 37°C with 95% relative humidity atmosphere containing 5% CO2. All cells were seeded in 24-well plates at a density of 4 × 10^5 cells/well and cultured for 1–2 days until they reached 80%–90% confluence. Prior to the initiation of uptake studies, the cells were washed twice with HBSS buffer at 37°C. Membrane vesicles were stored at −80°C and thawed at 37°C prior to the initiation of the studies.
(§2) An AB Sciex 4000 Mass Spectrometer (AB Sciex, Framingham, MA, USA) and Shimadzu LC 20 series (Shimadzu, Kyoto, Japan) were used for HPLC-MS/MS. […] The Phenomenex Synergi Hydro-RP column (30 mm × 2 mm, 4 µm, Phenomenex Inc., Torrance, CA, USA) was used for chromatographic separation. The mobile phase consisted of 0.1% (vol/vol) formic acid in water (A) and 0.1% (vol/vol) formic acid in acetonitrile (B). The gradient conditions were as follows: 0–1.4 min, 15%–80% B; 1.4–1.8 min, 80% B; 1.8–1.81 min, return to 15% B; 1.81–2.1 min, equilibrium. The flow rate was 450 µL/min. Data acquisition and analysis were performed using the Analyst software (version 1.4.1, AB Sciex).

Data set [3] has as its target human MDR1 (Homo sapiens, UniProt P08183). The settings on record: 5 µM; 5 min; 37°C; ATP vs AMP. How it is done: as §1, §2
For data set [4] the following is noted: PNU-142300 and PNU-142586; cited from earlier work.
The target of data set [5] is human OAT1 (Homo sapiens, UniProt Q4U2R8). Particulars: 5 µM; 10 min; 37°C; vs mock cells. How it is done:
as §1
All uptake tests were performed in triplicates. The activities of transporter-transfected HEK293 cells were evaluated using relevant positive substrates and inhibitors. E17G (5 µM, OATP1B1 and OATP1B3), ES (2 µM, OATP2B1), ES (5 µM, OAT3), TCA (10 µM, NTCP), and PAH (20 µM, OAT1) were used as substrates of the transporters. The inhibitors for each transporter were rifampicin (200 µM, OATP1B1 and OATP1B3), erlotinib (10 µM, OATP2B1), CsA (20 µM, NTCP), and probenecid (200 µM, OAT1 and OAT3).
The cells were washed three times with ice-cold HBSS buffer. […] The total protein concentration was measured using a BCA Protein Assay Kit. The uptake rates of HEK293-OATP1B1, HEK293-OATP1B3, HEK293-OATP2B1, HEK293-NTCP, HEK293-OAT1, HEK293-OAT3, and mock cells were calculated. […]

Data set [6] concerns OCT2. The settings on record: cited from earlier work.
The test system of data set [7] is OATP1B1. Particulars: cited from earlier work.

Consider `CC(=O)NC[C@H]1CN(c2ccc(N3CCOCC3)c(F)c2)C(=O)O1` [Linezolid], for which the “substrate for OCT1” value in data set [1] was “not a substrate”. Besides, the “substrate for MRP2” value in data set [2] was “not a substrate”. Further, in data set [3], the “substrate for MDR1” value is listed as “not a substrate”. In addition, the “administered dose excreted in the urine as the two metabolites” value in data set [4] was “Approximately 50%”. In addition, the “substrate for OAT1” value in data set [5] was “not a substrate”. The “inhibitor of OCT2” value in data set [6] is “not an inhibitor”. Besides, the “inhibitor of OATP1B1” value in data set [7] was “inhibitor”.
